Laboratory results taken from patent publication US20260078119A1, “DEGRADER COMPOUNDS AND USES THEREOF” (Bristol-Myers Squibb Company, priority 2024, published 2026).

Sequences of proteins named here, by UniProt entry; tags and fusion partners are left off.
UniProt Q05397, whole entry: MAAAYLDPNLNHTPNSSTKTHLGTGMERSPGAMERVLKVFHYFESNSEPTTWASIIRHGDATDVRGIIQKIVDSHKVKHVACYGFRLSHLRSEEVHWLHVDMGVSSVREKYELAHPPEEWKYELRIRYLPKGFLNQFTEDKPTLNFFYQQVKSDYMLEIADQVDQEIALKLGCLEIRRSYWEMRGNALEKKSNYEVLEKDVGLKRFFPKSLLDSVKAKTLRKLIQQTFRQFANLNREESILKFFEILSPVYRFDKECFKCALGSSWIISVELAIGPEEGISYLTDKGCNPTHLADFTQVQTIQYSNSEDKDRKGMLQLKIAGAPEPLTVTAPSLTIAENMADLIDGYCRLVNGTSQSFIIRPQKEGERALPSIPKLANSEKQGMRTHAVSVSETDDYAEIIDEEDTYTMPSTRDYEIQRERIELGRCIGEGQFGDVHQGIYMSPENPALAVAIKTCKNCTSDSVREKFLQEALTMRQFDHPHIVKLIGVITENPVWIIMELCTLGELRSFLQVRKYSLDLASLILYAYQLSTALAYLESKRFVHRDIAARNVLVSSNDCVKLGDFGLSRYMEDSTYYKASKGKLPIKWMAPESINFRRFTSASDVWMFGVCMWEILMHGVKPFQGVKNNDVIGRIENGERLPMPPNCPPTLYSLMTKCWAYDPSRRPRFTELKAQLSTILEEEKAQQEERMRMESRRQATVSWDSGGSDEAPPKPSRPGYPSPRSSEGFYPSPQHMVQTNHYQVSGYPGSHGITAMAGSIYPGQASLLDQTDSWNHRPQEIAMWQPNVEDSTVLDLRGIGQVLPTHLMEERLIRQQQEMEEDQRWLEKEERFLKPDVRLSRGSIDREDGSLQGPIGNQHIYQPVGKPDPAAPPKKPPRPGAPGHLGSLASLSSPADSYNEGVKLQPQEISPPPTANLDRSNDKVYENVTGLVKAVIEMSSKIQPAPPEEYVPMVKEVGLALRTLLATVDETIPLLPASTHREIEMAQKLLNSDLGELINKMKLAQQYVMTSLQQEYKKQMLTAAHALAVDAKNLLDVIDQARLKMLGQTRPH

How the values were obtained:
FAK = FAK (Homo sapiens, UniProt Q05397); test: FAK-HiBiT Degradation Assay
Source text: To generate JHH-4-FAK-HiBiT cells for the FAK degradation assay, JHH-4 cells (Japanese Collection of Research Biosources Cell Bank, Japan) were transfected with ribonucleoprotein reagents to introduce, by CRISPR-Cas9 editing, the homozygous knock-in of a HiBiT tag (Promega Corporation, Madison, WI) to the C-terminus of the FAK gene in its natural genomic locus. Clonal cell populations were established by expanding single cells after CRISPR-Cas9 editing, with a clonal cell line named JHH-4-FAK-HiBiT clone d01 confirmed by next generation DNA sequencing to contain the expected HiBiT edited FAK gene and was selected for FAK degradation screening. Cells were selected and maintained in complete DMEM media (DMEM, 10% Heat Inactivated FBS, and Non-Essential Amino Acids at 37° C. and 5% CO2). Cells were passaged every 3-4 days by reseeding 0.5×10^6 cells in a T75 flask.
Cells were dispensed into 384-well white plates (Corning #3570, NY) that were pre-spotted with compounds using an acoustic dispenser (Echo acoustic transfer system, Beckman Coulter Life Sciences, Carlsbad, CA) as a 10-point dose response curve with a 3-fold dilution starting at 1 μM and including a DMSO control. Twenty-five microliters of media containing 2000 JHH-4-FAK-HiBiT Clone d01 cells was dispensed per well. […] After 10 minutes, luminescence was read on a PHERAstar luminometer (BMG Labtech, Cary, NC). […]

CAL-51 cells = test: CAL-51 Cell Proliferation Assay
Source text: CAL-51 cells were obtained from Bristol Myers Squibb internal cell banks (originally sourced from DSMZ-German Collection of Microorganisms and Cell Cultures GmbH, Germany) and cultured in RPMI complete media (RPMI-1640, 10% Fetal Bovine serum, 1× Antibiotic-Antimycotic, and 1× Non-Essential Amino Acids). Compounds were dispensed into 384-well plates using an acoustic dispenser (Beckman Coulter Life Sciences, Carlsbad, CA) in duplicate with 14 compounds on each plate. For each compound, a 10-point dose response was printed at 4-fold dilutions starting at 10 μM. The DMSO concentration was kept constant for a final assay concentration of 0.1% per well assuming 50 uL final media volume. Compound plates were sealed and frozen at −20° C. until use.
For each assay batch, compound plates were thawed and allowed to reach room temperature, and cells were seeded at 350 cells per well in 50 μl complete RPMI media. After 120 hours of incubation at 37° C. and 5% CO2, cells were lysed by addition of 25 μL of Cell-Titer-Glo Reagent (Promega Corporation, Madison, WI), as per manufacturer's instructions, protected from light, shaken for 20 minutes, and total luminescence read by a CLARIOstar Plus plate reader (BMG LabTech, Cary, NC). Total luminescence signal is linearly correlated with cell number remaining in the well. […]

O=C1CC[C@H](N2Cc3cc(Cn4ncc5c(-c6ncc(C(F)(F)F)cc6F)cc(N6CC[C@H](O)C6)nc54)ccc3C2=O)C(=O)N1
FAK HiBiT Ymin (FAK; lower limit of the four parameter fit (value A), Ymax derived using DMSO control, JHH-4-FAK-HiBiT cells, two hours): 62.22 | EC50 (FAK; read-out: FAK HiBiT EC50, JHH-4-FAK-HiBiT clone d01 cells, two hours incubation, 10-point dose response, 3-fold dilution starting at 1 μM, Nano-Glo HiBiT luminescence): 35 nM | CAL-51 Prolif Ymin (CAL-51 cells; minimal percent of DMSO control observed in the concentrations tested (Ymin-obs), 120 hours): 79.34 | EC50 (CAL-51 cells; read-out: CAL-51 Prolif EC50, 120 hours incubation, 10-point dose response, 4-fold dilutions starting at 10 μM, Cell-Titer-Glo): 2040 nM
